Test results reported in patent publication US9592281B2, “Method for inducing immunity with a peptide fragment from human CAPRIN-1” (Toray Industries, Inc., priority 2008, dated 2017).

Columns and labels:
[1] = test system: canine peripheral blood mononuclear cells; assay: ELISpot assay of IFNγ using peripheral blood mononuclear cells of administered dogs; format: cell-based, dog; settings: 5×10^5 cells/well, restimulated with the administered polypeptide 24 hours, no spots before administration
Text: The blood samples of the clinically affected dogs to which the recombinant polypeptides having the amino acid sequences shown by SEQ ID NO: 6, SEQ ID NO: 2, and SEQ ID NO: 8 had been administered in the administration test conducted in (1) above were obtained before administration and 10 days and 30 days after the initial administration, peripheral blood mononuclear cells were separated in accordance with a conventional technique, and the capacity of the recombinant proteins for immunity induction was evaluated via the ELISpot assay of IFNγ using the peripheral blood mononuclear cells.
70% ethanol was added to a 96-well plate (MultiScreen-IP, MAIPS4510, Millipore) in amounts of 100 μl/well, the plate was allowed to stand for 5 minutes, ethanol was aspirated off, the plate was washed with sterilized water, 200 mM sodium bicarbonate (pH 8.2) was added in amounts of 300 μl/well, the plate was allowed to stand for 5 minutes, sodium bicarbonate was aspirated off, and the plate was washed. […] After the reaction was terminated, the membrane was dried, and the number of the developed spots was counted using the KS Elispot (Carl Zeiss). As a result, no spots were detected in the peripheral blood mononuclear cells of clinically affected dogs before polypeptide administration. […]

[2] = test system: tumor of cancer-bearing dog (breast cancer); assay: Antitumor evaluation of recombinant protein in cancer-bearing dog; format: in vivo; settings: dog with breast cancer; with Freund's incomplete adjuvant, 3 times, plus 100 μg canine interleukin 12 subcutaneously; tumor at administration about 123 mm^3 (SEQ ID NO: 2), about 96 mm^3 (SEQ ID NO: 8)
Procedure: A cancer-bearing dog (breast cancer) having a tumor on the epidermis was subjected to evaluation of the antitumor effects of the recombinant protein purified above.
The recombinant polypeptide having the amino acid sequence shown by SEQ ID NO: 6 purified in the above-described manner (100 μg, 0.5 ml) was mixed with the equivalent amount of the Freund's incomplete adjuvant (Wako Pure Chemical Industries, Ltd.) to prepare a cancer therapeutic agent. The resulting agent was administered 3 times in total to the regional lymph node in the vicinity of the tumor, as an initial-administration, and 3 days and 7 days thereafter. As a result, a tumor about 86 mm^3 in size when the cancer therapeutic agent was administered shrank to 55 mm^3, 30 mm^3, and 20 mm^3 10 days, 20 days, and 30 days after the initial administration, respectively.
A mixture of 0.5 ml of the recombinant polypeptide having the amino acid sequence shown by SEQ ID NO: 2 and 0.5 ml of the Freund's incomplete adjuvant was administered to another dog having breast cancer 3 times in total in the same manner as described above. Also, 100 μg of canine interleukin 12 was administered together with the agent subcutaneously. As a result, a tumor about 123 mm^3 in size when the cancer therapeutic agent was administered completely regressed 45 days after the initial administration of the cancer therapeutic agent. […]

B1: SEQ ID NO: 2: recombinant polypeptide having the amino acid sequence shown by SEQ ID NO: 2 (human CAPRIN-1), expressed in E. coli (protein, listed as Homo sapiens)
chain: MPSATSHSGSGSKSSGPPPPSGSSGSEAAAGAGAAAPASQHPATGTGAVQTEAMKQILGVIDKKLRNLEKKKGKLDDYQERMNKGERLNQDQLDAVSKYQEVTNNLEFAKELQRSFMALSQDIQKTIKKTARREQLMREEAEQKRLKTVLELQYVLDKLGDDEVRTDLKQGLNGVPILSEEELSLLDEFYKLVDPERDMSLRLNEQYEHASIHLWDLLEGKEKPVCGTTYKVLKEIVERVFQSNYFDSTHNHQNGLCEEEEAASAPAVEDQVPEAEPEPAEEYTEQSEVESTEYVNRQFMAETQFTSGEKEQVDEWTVETVEVVNSLQQQPQAASPSVPEPHSLTPVAQADPLVRRQRVQDLMAQMQGPYNFIQDSMLDFENQTLDPAIVSAQPMNPTQNMDMPQLVCPPVHSESRLAQPNQVPVQPEATQVPLVSSTSEGYTASQPLYQPSHATEQRPQKEPIDQIQATISLNTDQTTASSSLPAASQPQVFQAGTSKPLHSSGINVNAAPFQSMQTVFNMNAPVPPVNEPETLKQQNQYQASYNQSFSSQPHQVEQTELQQEQLQTVVGTYHGSPDQSHQVTGNHQQPPQQNTGFPRSNQPYYNSRGVSRGGSRGARGLMNGYRGPANGFRGGYDGYRPSFSNTPNSGYTQSQFSAPRDYSGYQRDGYQQNFKRGSGQSGPRGAPRGRGGPPRPNRGMPQMNTQQVN
In the case of B1, the “number of IFNγ spots detected in peripheral blood mononuclear cells” value ([1]; 10 days after the administration) is reported as 53 spots, the “number of IFNγ spots detected in peripheral blood mononuclear cells” value ([1]; 30 days after the administration) is reported as 189 spots and the “tumor completely regressed, time after the initial administration” value [2] is reported as 45 days.
